Test results taken from paper PMC11730736.

By UniProt entry, the sequences of proteins in these tests, tags left out. Where a name states a change or a piece, a line headed by the entry shows the natural chain unless it says otherwise.
UniProt Q96P20: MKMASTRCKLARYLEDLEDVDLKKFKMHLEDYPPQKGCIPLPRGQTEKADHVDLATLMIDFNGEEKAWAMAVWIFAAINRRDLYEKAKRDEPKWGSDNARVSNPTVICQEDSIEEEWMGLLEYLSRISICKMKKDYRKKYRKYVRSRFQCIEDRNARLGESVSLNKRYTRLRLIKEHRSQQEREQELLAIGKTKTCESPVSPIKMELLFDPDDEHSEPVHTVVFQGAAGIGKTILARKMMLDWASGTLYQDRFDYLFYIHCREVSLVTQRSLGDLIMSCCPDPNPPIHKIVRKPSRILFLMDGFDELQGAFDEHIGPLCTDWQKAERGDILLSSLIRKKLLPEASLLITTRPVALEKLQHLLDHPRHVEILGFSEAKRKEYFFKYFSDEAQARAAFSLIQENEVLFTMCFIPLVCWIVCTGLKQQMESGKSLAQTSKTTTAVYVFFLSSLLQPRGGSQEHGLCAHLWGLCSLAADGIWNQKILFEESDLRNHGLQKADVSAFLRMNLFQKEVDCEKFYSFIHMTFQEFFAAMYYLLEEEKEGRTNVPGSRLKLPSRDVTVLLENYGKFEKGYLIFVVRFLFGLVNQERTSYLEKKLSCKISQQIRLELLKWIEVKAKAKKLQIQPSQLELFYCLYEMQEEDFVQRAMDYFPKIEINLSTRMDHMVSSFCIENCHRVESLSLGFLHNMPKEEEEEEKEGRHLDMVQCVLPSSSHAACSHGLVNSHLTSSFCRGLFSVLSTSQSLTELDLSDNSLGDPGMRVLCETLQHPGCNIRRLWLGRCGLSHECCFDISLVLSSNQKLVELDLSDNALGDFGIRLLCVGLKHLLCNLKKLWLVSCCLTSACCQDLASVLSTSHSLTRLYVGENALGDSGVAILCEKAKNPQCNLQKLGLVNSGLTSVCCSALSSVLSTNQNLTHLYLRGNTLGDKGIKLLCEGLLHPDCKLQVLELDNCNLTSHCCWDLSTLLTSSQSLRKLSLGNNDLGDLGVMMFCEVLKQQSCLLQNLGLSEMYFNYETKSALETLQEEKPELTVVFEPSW

Target: MBP-hNLRP3-ΔPYD (NLRP3.136_1036.R137C.K138A.K142A with flag.6His tag on the N-terminus of the MBP) (UniProt Q96P20)
Experiment: cryo-EM structure; purified MBP-hNLRP3-ΔPYD with ADP and compound C, 4.4-4.6 mg/ml; 25 mM HEPES pH 7.4, 0.4 M NaCl, 0.2% CHAPS, 0.2 mM TCEP; D2 symmetry imposed

stoichiometry N: 4
Substance: MBP-hNLRP3-ΔPYD (NLRP3.136_1036.R137C.K138A.K142A with flag.6His tag on the N-terminus of the MBP) (from UniProt Q96P20 136-1036) (domain or fragment)
